PubChem BioAssay AID799 (SRMLSC, 2007)
Only a part is listed here, and it is no random draw. Activity calls are given as the source filed them.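 The calls were made as follows: active = viability gain under doxorubicin at or above a set limit, the compound median plus 3 SD (cut at about 4.7% in these data); inactive = the rest.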

Assay: H69AR viability gain despite doxorubicin, primary screen, MRP-1 activator project, H69AR cells, CellTiter-Glo (AID 799);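 also: MRP-1 overexpressing cells given doxorubicin 25 µM after compound pretreatment; 18-22 h compound pretreatment then 72 h with doxorubicin before readout; 0% = doxorubicin-only wells and 100% = vehicle-treated cells without doxorubicin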
Conditions: viability rescue, at 10 µM, hits give high values

Question: Which viability increase does the source give for `CCC(=O)N1C2C3N(C(=O)CC)C1C1N(C(=O)CC)C(C(N1C(=O)CC)N3C(=O)CC)N2C(=O)CC` here?
Answer: The viability increase was inactive: 0.95%.

Question: With `CC(=O)NC(SC(=S)N(CC(C)C)CC(C)C)C(Cl)(Cl)Cl` (stereo not drawn) as the compound, how does the viability increase read?
Answer: Its viability increase is inactive: -2.57%.

Question: Which viability increase does the source give for `COC(=O)c1cc2c(s1)N=C(c1ccccc1)N(C)P2(=O)N1CCOCC1` (stereo not drawn) here?
Answer: The viability increase was inactive: -1.39%.

Question: Which viability increase does the source give for `CCOC(=O)NC(Sc1ccccc1)C(Cl)(Cl)Cl` (stereo not drawn) here?
Answer: The viability increase was inactive: 1.76%.

Question: With `O=P1(Nc2nc3ccc(Cl)cc3s2)COc2ccccc2O1` (stereo not drawn) as the compound, how does the viability increase read?
Answer: The viability increase was inactive: -1.14%.

Question: With `O=P(Nc1nccs1)(c1ccccc1)c1ccccc1` as the compound, how does the viability increase read?
Answer: The viability increase was inactive: -0.33%.

Question: Which viability increase does the source give for `CC(C)C(=O)NC(Sc1ccccc1)C(Cl)(Cl)Cl` (stereo not drawn) here?
Answer: The viability increase was inactive: -0.74%.

Question: With `c1nnnn1CCn1cnnn1` as the compound, how does the viability increase read?
Answer: The viability increase was inactive: -0.66%.

Question: Which viability increase does the source give for `CC(=O)NC(SC(=S)N(C)C)C(Cl)(Cl)Cl` (stereo not drawn) here?
Answer: The viability increase was inactive: -4.55%.

Question: Which viability increase does the source give for `O=C(OC1CN2CCC1CC2)c1cccc(Cl)c1` (stereo not drawn) here?
Answer: Its viability increase is inactive: -2.61%.

Question: With `C(Cc1nn[nH]n1)Cc1nn[nH]n1` as the compound, how does the viability increase read?
Answer: The viability increase was inactive: -0.15%.

Question: With `CC1CCN(C(=O)Oc2c(Cl)cc(Cl)c3cccnc23)CC1` as the compound, how does the viability increase read?
Answer: The viability increase was inactive: -1.96%.

Question: Which viability increase does the source give for `CN(C)C(=O)OCCc1n(C)cc[n+]1C` here?
Answer: The viability increase was inactive: -2.51%.

Question: Which viability increase does the source give for `CCc1nc2c(n1)c1c(non1O)c1c2no[n+]1[O-]` here?
Answer: The viability increase was inactive: -4.83%.

Question: With `CC(=O)N1C2C3N(C(C)=O)C1C1N(C(C)=O)C(C(N1C(C)=O)N3C(C)=O)N2C(C)=O` as the compound, how does the viability increase read?
Answer: The viability increase was inactive: -0.17%.

Question: With `O=[N+]([O-])c1cccc2n[nH]nc12` as the compound, how does the viability increase read?
Answer: The viability increase was inactive: 0.55%.

Question: Which viability increase does the source give for `O=C(NC(Sc1ccncn1)C(Cl)(Cl)Cl)c1ccccc1` (stereo not drawn) here?
Answer: The viability increase was inactive: -1.74%.

Question: With `Cc1c2non([O-])c-2c(C)[n+](=O)[n+]1[O-]` as the compound, how does the viability increase read?
Answer: Its viability increase is inactive: -6.19%.

Question: For `Oc1ccccc1CNc1ccccn1`, which viability increase is on record?
Answer: The viability increase was inactive: -1.9%.

Question: For `CC(C)CC(=O)NC(Sc1ccc(Cl)cc1)C(Cl)(Cl)Cl` (stereo not drawn), which viability increase is on record?
Answer: Its viability increase is inactive: -0.28%.

Question: For `CN1CCCC(OC(=O)C(c2ccccc2)c2ccccc2)C1` (stereo not drawn), which viability increase is on record?
Answer: Its viability increase is inactive: -2.51%.

Question: For `CCN(N=Nc1nonc1N)c1nonc1N`, which viability increase is on record?
Answer: Its viability increase is inactive: 0%.

Question: For `Cc1cc(SC(NC(=O)c2ccc(F)cc2)C(Cl)(Cl)Cl)ncn1` (stereo not drawn), which viability increase is on record?
Answer: Its viability increase is inactive: 1.5%.

Question: With `CCOP(=O)(Nc1ccccc1)OCC` as the compound, how does the viability increase read?
Answer: The viability increase was inactive: 0%.

Question: For `ClCCSc1nnc(-c2cccnc2)o1`, which viability increase is on record?
Answer: The viability increase was inactive: -1.56%.

Question: For `O=[N+]([O-])c1cc([N+](=O)[O-])c(-c2ccn[nH]2)s1`, which viability increase is on record?
Answer: The viability increase was inactive: -4.5%.

Question: With `CCN(CC)C(=S)SC(NC=O)C(Cl)(Cl)Cl` (stereo not drawn) as the compound, how does the viability increase read?
Answer: Its viability increase is inactive: -5.61%.

Question: Which viability increase does the source give for `Cc1ccc2nc3c(c(C)c2c1)CC(C(Cl)Cl)S3` (stereo not drawn) here?
Answer: Its viability increase is inactive: 0.36%.

Question: For `Cc1c2c(nc3ccccc13)SC(C(Cl)Cl)C2` (stereo not drawn), which viability increase is on record?
Answer: The viability increase was inactive: 1.21%.

Question: Which viability increase does the source give for `O=C(OC1CN2CCC1CC2)C12CC3CC(CC(C3)C1)C2` (stereo not drawn) here?
Answer: Its viability increase is inactive: -0.75%.

Question: With `CCC(C)N(CC(C)C)C(=S)SC(NC(C)=O)C(Cl)(Cl)Cl` (stereo not drawn) as the compound, how does the viability increase read?
Answer: The viability increase was inactive: 0.31%.

Question: Which viability increase does the source give for `COP1(=S)c2c(C)nn(CCC#N)c2N=C(c2ccc(F)cc2)N1C` (stereo not drawn) here?
Answer: The viability increase was inactive: -1.6%.

Question: Which viability increase does the source give for `O=C(COc1ccccc1)OC1CN2CCC1CC2` (stereo not drawn) here?
Answer: The viability increase was inactive: -2.36%.

Question: Which viability increase does the source give for `Cc1cc(SC(NC(=O)c2ccccc2)C(Cl)(Cl)Cl)nc(C(C)C)n1` (stereo not drawn) here?
Answer: The viability increase was inactive: -2.12%.

Question: With `O=P1(Nc2ncccn2)COc2ccccc2OC1` as the compound, how does the viability increase read?
Answer: Its viability increase is inactive: -0.53%.

Question: For `Cc1ccc(OCC(=O)OC2CN3CCC2CC3)cc1` (stereo not drawn), which viability increase is on record?
Answer: The viability increase was inactive: 0.11%.

Question: For `O=P1(Nc2ccc(Br)cn2)COc2ccccc2OC1`, which viability increase is on record?
Answer: The viability increase was inactive: 0.05%.

Question: With `Cc1nn(-c2ccccc2)c2c1P(=O)(N1CCOCC1)N(C)C(c1ccccc1)=N2` (stereo not drawn) as the compound, how does the viability increase read?
Answer: Its viability increase is inactive: -2.81%.

Question: Which viability increase does the source give for `O=P1(Nc2ccccn2)COc2ccccc2OC1` here?
Answer: The viability increase was inactive: -1.21%.

Question: With `Clc1n[nH]nc1-c1nn[nH][15n]1` as the compound, how does the viability increase read?
Answer: Its viability increase is inactive: 1.13%.

Question: With `Cc1ccc(NCCc2c([N+](=O)[O-])cc([N+](=O)[O-])cc2[N+](=O)[O-])cc1` as the compound, how does the viability increase read?
Answer: The viability increase was inactive: -3.64%.

Question: For `CCOP(=O)(Nc1cccc2ccccc12)OCC`, which viability increase is on record?
Answer: The viability increase was inactive: -1.61%.

Question: With `COc1cc(C2NCCC3(OCCO3)C2(C)C)cc(OC)c1OC` (stereo not drawn) as the compound, how does the viability increase read?
Answer: The viability increase was inactive: -2.84%.

Question: For `Cc1cccc(OCC(=O)OC2CN3CCC2CC3)c1` (stereo not drawn), which viability increase is on record?
Answer: Its viability increase is inactive: -3.51%.

Question: For `CCOP1(=S)c2c(C)nn(CCC#N)c2N=C(c2ccc(F)cc2)N1C` (stereo not drawn), which viability increase is on record?
Answer: The viability increase was inactive: -1.43%.

Question: With `O=[N+]([O-])c1ccc2c(c1)nnn2O` as the compound, how does the viability increase read?
Answer: The viability increase was inactive: 0.22%.

Question: For `O=P(Nc1nccs1)(c1ccccc1)c1nc2ccccc2s1` (stereo not drawn), which viability increase is on record?
Answer: Its viability increase is inactive: -0.35%.

Question: With `CCOP1(=S)c2c(C)nn(CCC#N)c2N=C(c2ccccc2F)N1C` (stereo not drawn) as the compound, how does the viability increase read?
Answer: Its viability increase is inactive: -0.64%.
